Results published in patent publication US10822367B2, “Pharmaceutical composition for preventing or treating dementia and improving cognitive function, comprising glasswort extract” (priority 2017, dated 2020).
Values joined by “and” are separate entries in the source; they are usually repeats but may differ in a detail not shown here. Equal values may be shown once.

Chains of the proteins cited; added tags and fusions are not shown. Residues count along the entry.
UniProt P22303, 32-614: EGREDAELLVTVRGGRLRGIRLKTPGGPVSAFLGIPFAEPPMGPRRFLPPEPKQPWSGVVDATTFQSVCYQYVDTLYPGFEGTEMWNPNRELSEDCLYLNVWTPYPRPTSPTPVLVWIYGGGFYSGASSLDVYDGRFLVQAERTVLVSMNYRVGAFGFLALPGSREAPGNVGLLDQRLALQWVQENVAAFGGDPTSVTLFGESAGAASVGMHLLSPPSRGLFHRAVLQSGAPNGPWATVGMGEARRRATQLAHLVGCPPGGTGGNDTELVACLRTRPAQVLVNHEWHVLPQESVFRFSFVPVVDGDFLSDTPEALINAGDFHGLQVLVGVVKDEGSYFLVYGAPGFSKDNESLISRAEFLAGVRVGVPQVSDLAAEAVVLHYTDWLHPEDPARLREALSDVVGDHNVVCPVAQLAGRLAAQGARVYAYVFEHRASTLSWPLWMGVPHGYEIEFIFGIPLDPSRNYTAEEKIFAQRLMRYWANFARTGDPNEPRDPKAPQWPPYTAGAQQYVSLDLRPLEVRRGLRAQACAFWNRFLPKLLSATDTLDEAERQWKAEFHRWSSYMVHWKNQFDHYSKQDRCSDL

Biological target: acetylcholine esterase (AChE) (Homo sapiens, UniProt P22303)
Assay: Acetylcholine esterase inhibitory activity (partially corrected Ellman's coupled enzyme assay)
Format: biochemical
Text: It has been reported that as the concentration of acetylcholine esterase (AChE) increases in the cerebral blood vessels, cholinergic neurotransmitters for neurons are deficient in neurons, causing memory and cognitive impairment. Therefore, the measurement of AChE inhibitory activity can be used as a tool for the development of a drug or health functional raw material for prevention and treatment of dementia or enhancement of cognitive ability. In the present invention, the AChE inhibitory activity of a desalted Salicornia europaea extract, a desalted Salicornia europaea enzymatic hydrolysis extract, or purified fractions obtained from a desalted Salicornia europaea extract were measured, and the measurement was conducted by partially correcting Ellman's coupled enzyme assay. […] The enzymatic reaction solution was incubated at 37° C. for 10 minutes, and then the absorbance was measured by a UV-VIS microreader at 410 nm. The AChE inhibitory activity was calculated as below by comparison between the absorbance (Ac) of a control group not containing a substrate and a sample and the absorbance (As) of a test group. *AChE inhibitory activity (%)=[1−(As/Ac)]×100 • Ac: absorbance of a control group, • As: absorbance of a sample group.

COc1ccc2cc3[n+](cc2c1OC)CCc1cc2c(cc1-3)OCO2 [Berberine]
IC50: 16.6 µM and 31.8 µM
